ChEMBL document CHEMBL6134819, “Discovery of novel tranylcypromine-indazole-based derivatives as LSD1 inhibitors for acute myeloid leukemia treatment” (Eur J Med Chem, 2025)

Columns and labels:
Homo sapiens [1] = organism: Homo sapiens; assay: Selectivity ratio of IC50 for human N-terminal Flag-tagged MAOA to IC50 for human recombinant LSD1 (852 residues)
Homo sapiens [2] = organism: Homo sapiens; assay: Selectivity ratio of IC50 for human N-terminal Flag-tagged MAOB to IC50 for human recombinant LSD1 (852 residues)
Homo sapiens [3] = organism: Homo sapiens; assay: Selectivity ratio of IC50 for human ERG to IC50 for human recombinant LSD1 (852 residues)

Q: Which results are given for `Cl.O=S(=O)(c1ccccc1)n1ncc2cc(-n3cc(CN[C@@H]4C[C@H]4c4ccc(F)c(F)c4)nn3)ccc21`?
A: Ratio IC50 (Homo sapiens [1]): 85.2; Ratio IC50 (Homo sapiens [2]): 269; Ratio IC50 (Homo sapiens [3]): 58.4
